Measured values reported in ChEMBL document CHEMBL3853350, “Discovery of a Selective Phosphoinositide-3-Kinase (PI3K)-γ Inhibitor (IPI-549) as an Immuno-Oncology Clinical Candidate” (ACS Med Chem Lett, 2016).

The chains behind the UniProt entries cited, without tags or fusion partners. Where a name states a change or a piece, a line headed by the entry shows the natural chain unless it says otherwise.
UniProt P48736: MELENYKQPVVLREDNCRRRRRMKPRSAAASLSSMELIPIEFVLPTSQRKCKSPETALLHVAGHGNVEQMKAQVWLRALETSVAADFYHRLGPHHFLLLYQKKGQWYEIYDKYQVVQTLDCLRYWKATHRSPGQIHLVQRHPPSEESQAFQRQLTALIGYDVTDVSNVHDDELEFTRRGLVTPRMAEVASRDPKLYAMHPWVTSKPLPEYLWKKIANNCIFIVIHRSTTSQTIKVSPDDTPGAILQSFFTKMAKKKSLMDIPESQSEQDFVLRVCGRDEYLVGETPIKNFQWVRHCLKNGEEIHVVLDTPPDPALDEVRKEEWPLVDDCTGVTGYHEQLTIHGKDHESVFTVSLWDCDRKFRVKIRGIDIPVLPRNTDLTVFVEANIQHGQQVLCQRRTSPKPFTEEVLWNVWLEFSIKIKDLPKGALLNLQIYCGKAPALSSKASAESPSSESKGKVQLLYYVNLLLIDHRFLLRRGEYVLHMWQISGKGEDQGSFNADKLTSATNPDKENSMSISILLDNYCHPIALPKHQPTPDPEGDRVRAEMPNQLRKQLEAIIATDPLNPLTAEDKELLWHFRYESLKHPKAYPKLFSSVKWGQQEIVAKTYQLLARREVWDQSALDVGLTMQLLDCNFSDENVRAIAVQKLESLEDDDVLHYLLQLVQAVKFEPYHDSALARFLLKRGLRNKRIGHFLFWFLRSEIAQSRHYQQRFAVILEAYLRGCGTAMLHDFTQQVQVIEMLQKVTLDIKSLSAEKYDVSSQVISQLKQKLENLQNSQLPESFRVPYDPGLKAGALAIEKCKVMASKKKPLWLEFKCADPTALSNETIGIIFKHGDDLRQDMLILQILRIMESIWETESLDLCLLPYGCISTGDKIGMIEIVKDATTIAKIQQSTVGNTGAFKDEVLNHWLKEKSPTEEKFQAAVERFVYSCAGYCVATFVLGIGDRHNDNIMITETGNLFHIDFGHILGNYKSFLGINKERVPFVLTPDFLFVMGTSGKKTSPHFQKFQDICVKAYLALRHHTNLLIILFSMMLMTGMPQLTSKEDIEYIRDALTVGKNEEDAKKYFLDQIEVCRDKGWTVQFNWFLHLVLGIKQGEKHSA

Target: Phosphatidylinositol 4,5-bisphosphate 3-kinase catalytic subunit gamma isoform (Homo sapiens, UniProt P48736)
Assay: biochemical

IC50: 40 nM
SMILES: C[C@H](NC(=O)c1c(N)nn2cccnc12)c1cc2cccc(Cl)c2c(=O)n1-c1ccccc1
